Data on one compound can be found in publication PMC6287471 (International Journal for Parasitology: Drugs and Drug …, 2018).

Each structure is given as a SMILES string.

Common to all, as to assay type: cell-based
The target of one experiment is T1, Hco-ACC-2 F200W/W248F (Haemonchus contortus, UniProt A0A219KWM7, F200W/W248F).
T1 sequence (A0A219KWM7 18-443 F200W/W248F): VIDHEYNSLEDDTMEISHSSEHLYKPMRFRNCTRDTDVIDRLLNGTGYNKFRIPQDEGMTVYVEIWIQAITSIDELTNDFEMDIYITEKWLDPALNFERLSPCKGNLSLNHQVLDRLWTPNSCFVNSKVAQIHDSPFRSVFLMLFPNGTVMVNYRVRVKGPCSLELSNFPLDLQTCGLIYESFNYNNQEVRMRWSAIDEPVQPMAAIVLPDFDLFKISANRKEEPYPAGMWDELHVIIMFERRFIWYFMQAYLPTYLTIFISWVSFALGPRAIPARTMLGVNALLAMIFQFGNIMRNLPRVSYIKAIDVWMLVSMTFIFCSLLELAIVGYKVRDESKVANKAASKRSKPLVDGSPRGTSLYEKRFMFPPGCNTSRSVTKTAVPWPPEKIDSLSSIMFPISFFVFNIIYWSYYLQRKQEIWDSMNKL

The next experiment has as its target T2, Hco-ACC-2 W248F (Haemonchus contortus, UniProt A0A219KWM7, W248F).
T2 sequence (A0A219KWM7 18-443 W248F): T1 sequence (A0A219KWM7 18-443 F200W/W248F)
The experiment is described as follows: Two-electrode voltage clamp of Hco-ACC-2 W248F mutant in Xenopus laevis oocytes.

The next experiment has as its target T3, Hco-ACC-2 F200Y (Haemonchus contortus, UniProt A0A219KWM7, F200Y).
T3 sequence (A0A219KWM7 18-443 F200Y): T1 sequence (A0A219KWM7 18-443 F200W/W248F)
Kind of experiment: Two-electrode voltage clamp of Hco-ACC-2 F200Y mutant in Xenopus laevis oocytes. (In general: In two-electrode clamp one electrode senses voltage and the other passes current.)

The target in a further experiment is T4, Hco-ACC-2 F200W (Haemonchus contortus, UniProt A0A219KWM7, F200W).
T4 sequence (A0A219KWM7 18-443 F200W): T1 sequence (A0A219KWM7 18-443 F200W/W248F)
The experiment is described as follows: Two-electrode voltage clamp of Hco-ACC-2 F200W mutant in Xenopus laevis oocytes.

A further experiment addresses T5, Hco-ACC-2 W248Y (Haemonchus contortus, UniProt A0A219KWM7, W248Y).
T5 sequence (A0A219KWM7 18-443 W248Y): T1 sequence (A0A219KWM7 18-443 F200W/W248F)
Kind of experiment: Two-electrode voltage clamp of Hco-ACC-2 W248Y mutant in Xenopus laevis oocytes.

Take `CC(=O)OCC[N+](C)(C)C` [Acetylcholine]: the EC50 at Hco-ACC-2 F200W/W248F was more than 20000 µM; on Hco-ACC-2 W248F, 5600 ± 1260 µM; on Hco-ACC-2 F200Y (EC50, F200Y mutant), 3 ± 0.1 µM; at Hco-ACC-2 F200Y (EC50 ± standard error, F200Y, F200Y mutant, n ≥ 5 oocytes) it was 2.9 ± 0.1 µM; on Hco-ACC-2 F200W it was 61 ± 4 µM; on Hco-ACC-2 W248Y, 7850 ± 275 µM.

As usually defined, the EC50 is the concentration at which the effect is half-maximal. Lower therefore signals an effect from little substance.
